Consider one molecule from ChEMBL document CHEMBL2429814 (J Med Chem, 2013).

By UniProt entry, the sequences of proteins in these tests, tags left out.
Metabotropic glutamate receptor 5 (Rattus norvegicus), P31424, UniProt P31424, whole entry Y658V: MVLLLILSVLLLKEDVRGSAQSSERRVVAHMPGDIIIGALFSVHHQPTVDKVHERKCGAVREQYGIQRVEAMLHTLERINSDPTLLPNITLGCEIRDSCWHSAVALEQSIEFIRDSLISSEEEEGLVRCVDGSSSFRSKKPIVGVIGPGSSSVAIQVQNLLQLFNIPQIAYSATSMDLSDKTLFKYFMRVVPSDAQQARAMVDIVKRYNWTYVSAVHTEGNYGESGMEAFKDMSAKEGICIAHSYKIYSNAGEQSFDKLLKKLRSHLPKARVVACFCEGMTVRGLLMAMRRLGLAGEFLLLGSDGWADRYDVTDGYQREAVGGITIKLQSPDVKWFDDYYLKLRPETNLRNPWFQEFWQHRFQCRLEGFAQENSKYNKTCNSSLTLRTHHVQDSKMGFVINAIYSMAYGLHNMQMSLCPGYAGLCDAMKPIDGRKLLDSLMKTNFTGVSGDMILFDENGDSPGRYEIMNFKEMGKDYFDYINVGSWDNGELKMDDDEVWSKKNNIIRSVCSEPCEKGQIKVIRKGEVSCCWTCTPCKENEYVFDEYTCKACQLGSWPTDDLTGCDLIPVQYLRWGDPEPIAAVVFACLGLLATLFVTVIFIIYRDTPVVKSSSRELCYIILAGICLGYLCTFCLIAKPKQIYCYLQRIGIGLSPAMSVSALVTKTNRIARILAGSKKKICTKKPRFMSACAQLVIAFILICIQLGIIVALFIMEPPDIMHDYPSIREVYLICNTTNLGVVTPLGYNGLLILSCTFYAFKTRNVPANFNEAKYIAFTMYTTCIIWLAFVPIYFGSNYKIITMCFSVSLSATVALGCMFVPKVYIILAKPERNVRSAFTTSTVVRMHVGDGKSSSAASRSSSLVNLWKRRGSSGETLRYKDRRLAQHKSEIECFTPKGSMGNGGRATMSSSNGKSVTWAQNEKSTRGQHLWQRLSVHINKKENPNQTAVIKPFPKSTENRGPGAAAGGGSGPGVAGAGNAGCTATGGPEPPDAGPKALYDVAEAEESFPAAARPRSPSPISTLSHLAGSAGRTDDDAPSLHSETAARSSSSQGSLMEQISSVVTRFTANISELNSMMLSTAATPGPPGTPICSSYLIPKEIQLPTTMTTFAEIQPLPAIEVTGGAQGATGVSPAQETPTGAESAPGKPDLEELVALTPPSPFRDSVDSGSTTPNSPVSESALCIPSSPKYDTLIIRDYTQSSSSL

For experiment [1], the system named is Metabotropic glutamate receptor 5 (Rattus norvegicus), P31424 [Y658V]. It counts as functional, cell-based. The settings on record: HEK293, 1 to 100 uM.
The test system is the same in experiment [2]. It counts as cell-based. Particulars: HEK293.

Calls of active or inactive are those of the source. No cut-off for these calls is given here.

Turning to `C[C@@H](NC(=O)c1ccc(C#Cc2ccccn2)cn1)C(C)(C)O`, the result in experiment [1] and in experiment [2] was inactive.
